# Measurements: patent US7833553B2, “Sulfur-containing proanthocyanidin oligomer compositon and process for producing the same” (Amino Up Chemical Co. Ltd., priority 2003, dated 2010)
# Test system: potassium bromate-induced acute kidney failure, Wistar rats
# Assay: Rat model of potassium bromate-induced acute kidney failure
# Format: in vivo
# Conditions: 10 mg/kg oral daily for 7 days, Day 0
# Procedure: In order to elucidate how high the antioxidant capacity of Substance 1 is as compared with other antioxidant polyphenol materials, comparative tests were performed on rat models of potassium bromate-induced acute kidney failure.
# Wistar rats (male, 12 weeks in age) were divided as follows.
# Potassium bromate was intraperitoneally administered in a single dose of 65 mg/kg body weight. Substance 1, Substance 5, and each comparative substance were orally administered every day once a day in a dose of 10 mg/kg body weight before 1 week (Day −7) from start (Day 0) of the administration of potassium bromate up until the day after Day 0. At the day of administration of potassium bromate, the substances were administered 30 minutes before or after the administration of potassium bromate. On Day −7, 0, and 2, blood was collected from the cervical vein and the polyphenol level, lipid peroxide level, TEAC, urea nitrogen level, and creatinine level in the blood were measured.
# Since the effects of Substance 1 and each comparative substance on potassium bromate-induced acute kidney failure are attributable to antioxidating action, blood polyphenol level, blood antioxidant capacity (TEAC), and blood lipid peroxide level as indicator of antioxidation, and blood urea nitrogen level and blood creatinine level as indicators of clinical outcome in kidney failure were examined. […]
substance,measurement,value
catechin [Comparative Substance 2],blood polyphenol level,followed by Comparative Substance 2 group
